# Source: patent publication US20070099907A1 (priority 2002, published 2007)
# System: activated partial-thromboplastin time (APTT)
# Test: Activated partial thromboplastin time after unfractionated heparin in the pilot study
# Format: in vivo, human
# Description: Patients were recruited from the Centro de Salud and the Centro Modelo de Cardiologia, Tucuman, Argentina. Inclusion criteria were chest pain within the previous 24 hours associated with ST-segment depression (>0.5 mm) and either ECG evidence of ischemia or previously documented coronary artery disease. Exclusion criteria were persistent ST-segment elevation and increased levels of the MB isoenzyme of creatine kinase (CK-MB) consistent with acute myocardial infarction, revascularization procedures within the preceding 6 months, malignancy, pregnancy, renal or hepatic diseases, use of anticoagulant therapy, treatment with anti-inflammatory drugs, or contraindication of the study drugs. […] Both groups received aspirin for 30 days. The dose range was 100 to 300 mg per day at the discretion of the treating physician. CK-MB levels were measured before randomization. Additional assays were performed after an episode of chest pain to confirm the diagnosis of acute MI. All patients received subcutaneous LMWH (either nadroparin 87 IU/kg BID or enoxaparin 1 mg/kg BID) or intravenous UFH given as an initial bolus of 5000 IU followed by continuous infusion at 1000 IU per hour for 7 days or until discharge from the hospital. The activated partial-thromboplastin time (APTT) was used to assess the degree of anticoagulation in patients receiving intravenous unfractionated heparin. Patients were tested every 12 hours on the first day and every 24 hours subsequently. The APTT was maintained in the range 45 to 87 seconds (normal value, 30±5 seconds).
# The nature of the quantitative variables distribution was assessed by the Shapiro-Wilk test. Differences between the 2 treatment groups were analyzed by the Student's t test (independent samples) or the Mann-Whitney test, according to the nature of the distribution. Differences in terms of activated partial thromboplastin time after unfractionated heparin were assessed by a 2-way ANOVA model, with repeated measures in one of the factors (Student Newman-Keuls post-hoc test). Univariate associations between qualitative variables were assessed by X^2 (Yates corrected) and Spearman rank-order correlations.
smiles,measurement,setting,value
"Cc1cnc(NC(=O)C2=C(O)c3ccccc3S(=O)(=O)N2C)s1 [Meloxicam, 4-hydroxy-2-methyl-N-(5-methyl-2-thiazolyl)-2H-1,2-benzothiazine-3-carboxamide-1,1-dioxide]","APTT in therapeutic range (45-87 s), %",Day 1 (first 24 hours),67.7%
same,"APTT over therapeutic range (>87 s), %",Day 1 (first 24 hours),6.5%
same,"APTT under therapeutic range (<45 s), %","Day 1 (first 24 hours), listed as Melox",25.8%
same,"APTT under therapeutic range (<45 s), %","Day 1 (first 24 hours), listed as meloxicam",26%
same,"APTT in therapeutic range (45-87 s), %",Day 2,79.7%
same,"APTT over therapeutic range (>87 s), %",Day 2,16%
same,"APTT under therapeutic range (<45 s), %",Day 2,3.6%
same,"APTT in therapeutic range (45-87 s), %",Day 3,52.3%
same,"APTT over therapeutic range (>87 s), %",Day 3,47.7%
same,"APTT under therapeutic range (<45 s), %",Day 3,0%
same,"APTT in therapeutic range (45-87 s), %",Day 4,58.3%
same,"APTT over therapeutic range (>87 s), %",Day 4,41.7%
same,"APTT under therapeutic range (<45 s), %",Day 4,0%
